Laboratory results from ChEMBL document CHEMBL2150994, “Design, synthesis, and pharmacological evaluation of glutamate carboxypeptidase II (GCPII) inhibitors based on thioalkylbenzoic acid scaffolds” (J Med Chem, 2012).

Chains of the proteins cited; added tags and fusions are not shown.
UniProt Q04609, whole entry: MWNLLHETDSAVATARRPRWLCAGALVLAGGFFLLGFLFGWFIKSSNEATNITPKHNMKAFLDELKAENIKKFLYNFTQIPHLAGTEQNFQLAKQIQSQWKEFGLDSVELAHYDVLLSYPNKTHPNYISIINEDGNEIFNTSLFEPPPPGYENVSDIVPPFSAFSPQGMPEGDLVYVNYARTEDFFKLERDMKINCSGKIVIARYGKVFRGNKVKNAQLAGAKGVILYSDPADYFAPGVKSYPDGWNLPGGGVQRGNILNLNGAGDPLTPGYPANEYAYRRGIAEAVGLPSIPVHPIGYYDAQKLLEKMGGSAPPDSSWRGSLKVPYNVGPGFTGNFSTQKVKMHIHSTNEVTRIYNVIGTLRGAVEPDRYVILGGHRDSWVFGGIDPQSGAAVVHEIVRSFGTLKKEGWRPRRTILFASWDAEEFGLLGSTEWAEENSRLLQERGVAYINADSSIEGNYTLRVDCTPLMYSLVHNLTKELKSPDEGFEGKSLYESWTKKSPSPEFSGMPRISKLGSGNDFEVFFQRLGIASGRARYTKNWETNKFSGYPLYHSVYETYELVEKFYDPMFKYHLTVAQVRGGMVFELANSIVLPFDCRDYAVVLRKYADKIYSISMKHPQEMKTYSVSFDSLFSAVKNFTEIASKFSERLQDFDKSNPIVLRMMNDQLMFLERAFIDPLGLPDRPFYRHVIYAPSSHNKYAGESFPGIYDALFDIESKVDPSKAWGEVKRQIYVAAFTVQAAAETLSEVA

Target: Glutamate carboxypeptidase 2 (Homo sapiens, UniProt Q04609)
Assay: Inhibition of human recombinant GCP2 using N-acetyl-L-aspartyl-[3H]-L-glutamate as substrate by microplate assay
How it was run: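 Radiometric enzyme assay using purified human recombinant GCPII with N-acetyl-L-aspartyl-[3H]-L-glutamate as substrate. IC50 was determined.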

- IC50: 420 nM
SMILES: O=C(O)c1cc(CS)ccc1OCc1ccccc1
